Amino acid sequences for entries named in this document (tags omitted). Residues count along the entry.
UniProt P10747, 19-152 limits assumed: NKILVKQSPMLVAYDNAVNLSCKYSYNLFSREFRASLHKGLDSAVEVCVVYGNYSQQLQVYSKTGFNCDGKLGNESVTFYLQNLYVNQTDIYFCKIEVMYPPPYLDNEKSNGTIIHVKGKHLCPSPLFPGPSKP

According to paper PMC10308680 (Journal of Biomedical Science, 2023):

Biological target: CD28-IgG-Fc (Homo sapiens, UniProt P10747)
Assay: SPR: binding of CD28-IgG-Fc to immobilized peptide
Details: read-out: KD (CD28-IgG-Fc to immobilized peptide); BIAcore 3000, CM5 chip, peptide with Cys at both termini (p2TA 700, pe12 1260 resonance units); 25 mM HEPES pH 7.4, 150 mM NaCl, 25 °C; analyte from 0.2 µM in twofold increments; 1:1 Langmuir; duplicate, representative

How did the Kd turn out when `C[C@@H](N)C(=O)N[C@@H](CO)C(=O)N[C@@H](Cc1c[nH]cn1)C(=O)N[C@@H](Cc1ccccc1)C(=O)N[C@H](C(=O)N[C@@H](Cc1c[nH]cn1)C(=O)N[C@@H](CC(N)=O)C(=O)N[C@@H](CCCNC(=N)N)C(=O)N[C@@H](Cc1c[nH]cn1)C(=O)NCC(=O)N[C@@H](Cc1c[nH]cn1)C(=O)N[C@@H](CO)C(=O)N[C@H](C(=O)N[C@H](C)C(=O)O)[C@@H](C)O)[C@@H](C)O` was run?
Its Kd is 3 µM.
